Test results as given in US20260022097A1 (priority 2022, published 2026).

Biological target: mu-opioid receptor (MOR) (Homo sapiens, UniProt P35372)
Experiment: inhibition of forskolin-induced cAMP accumulation assay, MOR antagonist mode versus fentanyl

Row | Compound | MOR antagonist (result in words) | MOR antagonist potency relative to naltrexone
1 | C=C[C@H]1[C@@H]2CCC[C@@]1(c1cccc(O)c1)CCN2CCc1ccccc1 [Compound 19, 3-((1S,5R,9R)-2-Phenethyl-9-vinyl-2-azabicyclo[3.3.1]nonan-5-yl) phenol] | potent MOR antagonist | about twice as potent as naltrexone
2 | CC/C=C\[C@H]1[C@@H]2CCC[C@@]1(c1cccc(O)c1)CCN2CCc1ccccc1 | potent MOR antagonist | 
3 | C/C=C\[C@H]1[C@@H]2CCC[C@@]1(c1cccc(O)c1)CCN2CCc1ccccc1 | potent MOR antagonist | 
